{"source": "patent EP2289528A1", "about": "“Novel nutraceutical compositions containing black pepper or its constituents improving mental performance” (DSM IP Assets B.V., priority 2009, dated 2011)", "system": "GluR1", "assay": "Hippocampal slice cultures, immunohistochemistry of synaptic marker GluR1", "assay_type": "cell-based, Wistar rats", "conditions": "relative activation vs sister cultures treated with buffer; 15 min treatment after 48 h in culture", "description": "Seven-day-old Wistar rats were decapitated using a guillotine. […] Transversal hippocampal slices (400 µm) were prepared using a vibrating blade microtome (VT1200S; Leica Microsystems (Schweiz) AG, Heerbrugg, Switzerland) in the same buffer. Hippocampal slices were individually placed on a membrane insert (Millicell Culture Plate Inserts, 0.4 µm) and cultivated at 35 °C, 5% CO2, 95% humidity in a medium containing a 1:1 mixture of BME and MEM (both from Invitrogen) containing 25% heat-inactivated horse serum, 1x GlutaMAX, 1x Penicillin/Streptomycin, 0.6% glucose and 1mM Kynurenic acid (Stoppini, Buchs and Muller (1991), J. Neurosci. Methods, 37(2), 173-82). After 48 h in culture, synaptic NMDA receptors were activated by addition of black pepper extract or its constituents for 15 min in 140 mM NaCl, 5 mM KCl, 1.3 mM CaCl2, 25 mM HEPES (pH 7.3), 33 mM D-glucose and 0.02 mM bicuculline methiodide. […] An additional positive control comprised the addition of 200 µM glycine to sister cultures. After the treatments, sections were washed and fixed for immunohistochemistry. Markers of enhanced synaptic activity, normally associated with long-term potentiation, representing an ex vivo model of learning and memory were quantitated (see Table 2, below). Table 2. […] The activation of any of these markers (or a combination thereof) is observed in classical LTP experiments. TABLE 2 […]"}
{"compound": "NCC(=O)O", "note": "[Glycine, reference compound]", "values": [{"measurement": "GluR1", "result": "123-298%"}]}
